Reference: patent US8034602B2 (priority 2006, dated 2011)
Only a part of the results on these compounds is given; other tests are left out.

Test system: Corynebacterium glutamicum KFCC-10680
Experiment: Viability after NTG treatment (mutagenesis)
Settings: 200 mg/L of NTG for 20 minutes, smeared onto minimal medium
Method: The induction of the mutant strain will be described in more detail, as follows. The parent strain was activated through culturing in an activation medium (Note 2) for 16 hours. The activated strain was cultured in a seed medium (Note 3), which was sterilized at 121° C. for 5 minutes, for 14 hours. 5 ml of the seed culture were washed with 100 mM citric buffer, treated with 200 mg/L of NTG for 20 minutes, and washed with 100 mM phosphate buffer. The NTG-treated strain was then smeared onto the minimal medium (Note 1), and the viability thereof was evaluated. […] In order to obtain a mutant strain resistant to all of alpha-aminobutyric acid, canavanine and arginine hydroxamate, the NTG-treated strain was smeared onto the minimal medium supplemented with canavanine, arginine hydroxamate and alpha-aminobutyric acid at 500 mg/L, 500 mg/L and 10 g/L, respectively, and cultured at 30° C. for 5 days. The emerged colonies were cultured in an Erlenmeyer flask containing an arginine production medium (Note 4) for 72 hours. A mutant strain, which produces arginine and is resistant to canavanine, arginine hydroxamate and alpha-aminobutyric acid, was selected and designated as Corynebacterium glutamicum CJR0500.

N-methyl-N-nitro-N-nitrosoguanidine
death rate: 85%
